{"source": "PubChem BioAssay AID686979", "about": "(National Center for Advancing Translational Sciences (NCATS), 2013)", "note": "This is a selection; strong and weak results do not stand in their true shares. Inconclusive results are not listed. Where a call stands in place of a potency, no number is given. Calls of active or inactive are those of the source. The call rests on the fitted dose curve; in most records, active means well fitted inhibition curve with a large enough effect; inconclusive means small, poorly fitted or top-dose-only effect; inactive means flat fitted curve, though single readings scatter. Potency means the concentration at half of the fitted maximal effect.", "data": [{"assay": "qHTS for Inhibitors of human tyrosyl-DNA phosphodiesterase 1 (TDP1): qHTS in cells in presence of CPT; further: nearly all actives have a fitted effect of over 55% in size", "conditions": "chicken DT40 Tdp1-/-;hTDP1 cells + 20 nM CPT, ATP luminescence, 48 h; series mostly up to 46.2 µM", "values": [{"smiles": "Nc1ccc2c(ccc3cccnc32)n1.O=[N+]([O-])c1cc([N+](=O)[O-])c(O)c([N+](=O)[O-])c1", "Potency": "inactive"}, {"smiles": "CCOC(=O)c1ccc(NP(C)(=O)Oc2ccc(Cl)cc2)cc1", "note": "(stereo not given)", "Potency": "inactive"}, {"smiles": "CC(C)OP(=O)(F)OC(C)C", "Potency": "inactive"}, {"smiles": "COc1ccc(OP(C)(=O)Nc2ccc(Br)cc2)cc1", "note": "(stereo not given)", "Potency": "inactive"}, {"smiles": "CCc1ccc(OP(C)(=O)Nc2cccnc2)cc1", "note": "(stereo not given)", "Potency": "inactive"}, {"smiles": "CP(=O)(Oc1ccccc1)N1CCOC1=O", "note": "(stereo not given)", "Potency": "inactive"}, {"smiles": "O=C(OCCCN1CCCC1)C(O)(c1ccccc1)C1CCCCC1", "note": "(stereo not given)", "Potency": "inactive"}, {"smiles": "OCCSCCO", "Potency": "inactive"}, {"smiles": "COc1ccccc1OP(C)(=O)Nc1c(C)n(C)n(-c2ccccc2)c1=O", "note": "(stereo not given)", "Potency": "inactive"}, {"smiles": "CP(=O)(Nc1ccc(Cl)cc1)Oc1ccc(F)cc1", "note": "(stereo not given)", "Potency": "inactive"}, {"smiles": "COc1ccccc1OP(C)(=O)Nc1ccccc1Br", "note": "(stereo not given)", "Potency": "inactive"}, {"smiles": "CC(C)(C)c1ccc(OP(C)(=O)O)cc1", "Potency": "inactive"}, {"smiles": "CN(C)C(=O)c1c([N+](=O)[O-])cc([N+](=O)[O-])cc1[N+](=O)[O-]", "Potency": "active: 2.59 µM"}, {"smiles": "COc1ccccc1OP(C)(=O)Nc1ccc(Br)cc1", "note": "(stereo not given)", "Potency": "inactive"}, {"smiles": "CN(C)CCOC(=O)C(O)(c1ccccc1)C1CCCC1", "note": "(stereo not given)", "Potency": "inactive"}, {"smiles": "COc1ccc(OP(C)(=O)Nc2ccccn2)cc1", "note": "(stereo not given)", "Potency": "inactive"}, {"smiles": "Cc1c(NP(C)(=O)Oc2ccc(C(C)C)cc2)c(=O)n(-c2ccccc2)n1C", "note": "(stereo not given)", "Potency": "inactive"}, {"smiles": "O=[N+]([O-])c1cc([N+](=O)[O-])c(Nc2ccccn2)c([N+](=O)[O-])c1", "Potency": "active: 2.31 µM"}, {"smiles": "CCc1ccc(OP(C)(=O)O)cc1", "Potency": "inactive"}, {"smiles": "COc1ccccc1OP(C)(=O)Nc1ccc(C)cc1C", "note": "(stereo not given)", "Potency": "inactive"}, {"smiles": "CP(=O)(Nc1ccccn1)Oc1ccccc1", "note": "(stereo not given)", "Potency": "inactive"}, {"smiles": "Cc1cc(C)cc(OP(C)(=O)Nc2cccc(C(F)(F)F)c2)c1", "note": "(stereo not given)", "Potency": "inactive"}, {"smiles": "COc1ccc(OP(C)(=O)Nc2ccccc2Br)cc1", "note": "(stereo not given)", "Potency": "inactive"}, {"smiles": "COc1ccccc1OP(C)(=O)Nc1ccc(C)c(C)c1", "note": "(stereo not given)", "Potency": "inactive"}, {"smiles": "CP(=O)(Nc1ccc(Cl)cc1Cl)Oc1ccccc1", "note": "(stereo not given)", "Potency": "inactive"}, {"smiles": "CCCCCCCCCCCCCCCC1C[N+](C)(C)CCOP(C)(=O)O1", "note": "(stereo not given)", "Potency": "active: 14.6 µM"}, {"smiles": "CP(=O)(OCCOc1ccccc1)OCCOc1ccccc1", "Potency": "inactive"}, {"smiles": "Cc1cccc([N+](=O)[O-])c1[N+](=O)[O-]", "Potency": "inactive"}, {"smiles": "COc1ccc(OP(C)(=O)Nc2ccc(SC(F)(F)F)cc2)cc1", "note": "(stereo not given)", "Potency": "active: 16.4 µM"}, {"smiles": "CCOC(=O)c1ccc(NP(C)(=O)Oc2ccc(F)cc2)cc1", "note": "(stereo not given)", "Potency": "inactive"}, {"smiles": "CCN(CC)CCCOC(=O)C(O)(c1ccccc1)C1CCCCC1", "note": "(stereo not given)", "Potency": "inactive"}, {"smiles": "Cc1c([N+](=O)[O-])cc([N+](=O)[O-])c(Br)c1[N+](=O)[O-]", "Potency": "active: 6.51 µM"}, {"smiles": "CP(=O)(Nc1ccccc1)Oc1ccc(F)cc1", "note": "(stereo not given)", "Potency": "inactive"}, {"smiles": "CP(=O)(Nc1ccccc1F)Oc1ccccc1", "note": "(stereo not given)", "Potency": "inactive"}, {"smiles": "O=C(OCCN1CCN(CCOCc2ccccc2)CC1)C(O)(c1ccccc1)c1ccccc1", "Potency": "inactive"}, {"smiles": "CCOP(=O)(CC)Oc1ccc([N+](=O)[O-])cc1", "note": "(stereo not given)", "Potency": "inactive"}, {"smiles": "CCOP(C)(=S)SCC(=O)NC(C)(CC)C(=O)O", "note": "(stereo not given)", "Potency": "inactive"}, {"smiles": "CP(=O)(Nc1ccc2c(c1)OCCO2)Oc1ccccc1", "note": "(stereo not given)", "Potency": "inactive"}, {"smiles": "O=[N+]([O-])c1cc([N+](=O)[O-])c(C(F)(F)F)c([N+](=O)[O-])c1O", "Potency": "inactive"}, {"smiles": "Cc1ccccc1NP(C)(=O)Nc1ccccc1C", "Potency": "inactive"}, {"smiles": "CCN(CCCl)Cc1ccccc1C", "Potency": "inactive"}, {"smiles": "COc1ccc(OP(C)(=O)Nc2cccc(Br)c2)cc1", "note": "(stereo not given)", "Potency": "inactive"}, {"smiles": "COc1ccc(NP(C)(=O)Oc2ccccc2OC)cc1", "note": "(stereo not given)", "Potency": "active: 11.6 µM"}, {"smiles": "CN(C)CCOC(=O)C(O)(c1ccccc1)C1CCCCC1", "note": "(stereo not given)", "Potency": "inactive"}, {"smiles": "O=[N+]([O-])c1ccc(OP2(=O)COCCO2)cc1", "note": "(stereo not given)", "Potency": "inactive"}, {"smiles": "Cc1c(C(c2ccc3c(c2)OCO3)c2c(C)n(C)n(-c3ccccc3)c2=O)c(=O)n(-c2ccccc2)n1C.O=[N+]([O-])c1cc([N+](=O)[O-])c(O)c([N+](=O)[O-])c1", "Potency": "inactive"}, {"smiles": "CC1CCOC(=O)C=CC=CC(=O)OC2CC3OC4C5OC5(C)CCC4(COC(=O)C1O)C2(C)C31CO1", "note": "(stereo not given)", "Potency": "active: 0.082 µM"}, {"smiles": "CN1CCCCC1COC(=O)C1(O)c2ccccc2CCc2ccccc21", "note": "(stereo not given)", "Potency": "inactive"}, {"smiles": "COc1ccccc1OP(C)(=O)Nc1c(C)cccc1C", "note": "(stereo not given)", "Potency": "inactive"}, {"smiles": "CCCOc1ccc(NP(C)(=O)Oc2ccc(Cl)cc2)cc1", "note": "(stereo not given)", "Potency": "inactive"}, {"smiles": "COc1ccc(-c2ccccn2)cc1.O=[N+]([O-])c1cc([N+](=O)[O-])c(O)c([N+](=O)[O-])c1", "Potency": "inactive"}, {"smiles": "O=[N+]([O-])c1cc([N+](=O)[O-])c(-n2nnc3ccccc32)c([N+](=O)[O-])c1", "Potency": "inactive"}, {"smiles": "CC(C)N(CCCl)C(C)C", "Potency": "inactive"}, {"smiles": "O=[N+]([O-])c1cc([N+](=O)[O-])c(-c2cnn(-c3ccccc3)c2)c([N+](=O)[O-])c1", "Potency": "active: 3.66 µM"}, {"smiles": "Cc1nc2ccc3ccccc3c2s1.O=[N+]([O-])c1cc([N+](=O)[O-])c(O)c([N+](=O)[O-])c1", "Potency": "inactive"}, {"smiles": "COc1ccccc1OP(C)(=O)Nc1cccc(Br)c1", "note": "(stereo not given)", "Potency": "inactive"}, {"smiles": "Cc1cc(C)cc(OP(C)(=O)Nc2ccc(C)cc2C)c1", "note": "(stereo not given)", "Potency": "inactive"}, {"smiles": "Cc1cc(C)cc(OP(C)(=O)Nc2ccccn2)c1", "note": "(stereo not given)", "Potency": "inactive"}, {"smiles": "CP(=O)(Nc1cccc(Br)c1)Oc1ccccc1", "note": "(stereo not given)", "Potency": "inactive"}, {"smiles": "Cc1ccc(C)c(NP(C)(=O)Oc2ccccc2)c1", "note": "(stereo not given)", "Potency": "inactive"}, {"smiles": "O=[N+]([O-])c1cccc([N+](=O)[O-])c1", "Potency": "inactive"}, {"smiles": "O=[N+]([O-])OCC(CO[N+](=O)[O-])(CO[N+](=O)[O-])CO[N+](=O)[O-]", "Potency": "inactive"}, {"smiles": "CC1=NCCc2c1[nH]c1ccccc21.O=[N+]([O-])c1cc([N+](=O)[O-])c(O)c([N+](=O)[O-])c1", "Potency": "inactive"}, {"smiles": "O=[N+]([O-])c1cc([N+](=O)[O-])c(Nc2cccnc2)c([N+](=O)[O-])c1", "Potency": "active: 23.1 µM"}, {"smiles": "Cc1cccc(C)c1OP(C)(N)=O", "note": "(stereo not given)", "Potency": "inactive"}, {"smiles": "O=[N+]([O-])c1ccc2c(c1)C=Nc1ccccc1O2", "Potency": "active: 5.17 µM"}, {"smiles": "CCOC(=O)c1ccc(NP(C)(=O)Oc2ccccc2)cc1", "note": "(stereo not given)", "Potency": "inactive"}, {"smiles": "Cc1ccc(NP(C)(=O)Oc2ccccc2)c(C)c1", "note": "(stereo not given)", "Potency": "inactive"}, {"smiles": "COc1ccccc1OP(C)(=O)Nc1ccc(C)cc1", "note": "(stereo not given)", "Potency": "inactive"}, {"smiles": "COc1ccc(OP(C)(=O)Nc2cccc(F)c2)cc1", "note": "(stereo not given)", "Potency": "inactive"}, {"smiles": "Cc1cc(C)cc(OP(C)(N)=O)c1", "note": "(stereo not given)", "Potency": "inactive"}, {"smiles": "CCN(CC)CCCOC(=O)C(O)(c1ccccc1)c1ccccc1", "Potency": "inactive"}, {"smiles": "COc1ccccc1-c1ccccn1.O=[N+]([O-])c1cc([N+](=O)[O-])c(O)c([N+](=O)[O-])c1", "Potency": "inactive"}, {"smiles": "O=[N+]([O-])[O-].[NH4+]", "Potency": "inactive"}, {"smiles": "CP(=O)(Oc1ccccc1)OC(c1ccccc1)C(F)(F)F", "note": "(stereo not given)", "Potency": "inactive"}, {"smiles": "CP(=O)(NC(=O)Nc1ccccc1)Oc1ccccc1", "note": "(stereo not given)", "Potency": "inactive"}, {"smiles": "CCc1ccc(OP(C)(=O)N2CCN(c3ccc([N+](=O)[O-])cc3)CC2)cc1", "note": "(stereo not given)", "Potency": "active: 16.4 µM"}, {"smiles": "CCOP(C)(=S)SCC(=O)NC(C)C(=O)O", "note": "(stereo not given)", "Potency": "inactive"}, {"smiles": "CN(C)CCS", "Potency": "inactive"}, {"smiles": "O=[N+]([O-])c1cc([N+](=O)[O-])c(O)c([N+](=O)[O-])c1.c1ccc(Oc2ccncc2)cc1", "Potency": "inactive"}, {"smiles": "CCOC(=O)c1ccc(NP(C)(=O)Oc2ccc(OC)cc2)cc1", "note": "(stereo not given)", "Potency": "inactive"}, {"smiles": "CP(=O)(Nc1ccccn1)Oc1ccc(Cl)cc1", "note": "(stereo not given)", "Potency": "inactive"}, {"smiles": "CP(=S)(Nn1cnnc1)Oc1ccccc1", "note": "(stereo not given)", "Potency": "inactive"}, {"smiles": "COc1ccccc1OP(C)(=O)Nc1ccccc1", "note": "(stereo not given)", "Potency": "inactive"}, {"smiles": "CP(=O)(Nc1ccccc1Br)Oc1ccccc1", "note": "(stereo not given)", "Potency": "inactive"}]}]}
